These results are taken from patent US20260384450A1, “MACROCYCLIC AMINOPYRIDINE COMPOUNDS AS EGFR INHIBITORS” (published 2026).

The chains behind the UniProt entries cited, without tags or fusion partners. Where a name states a change or a piece, a line headed by the entry shows the natural chain unless it says otherwise. A line that says so, or that is headed by a name, gives the form on record, which may keep a tag or linker. Residues count along the entry.
UniProt P00533, 25-1210 limits assumed: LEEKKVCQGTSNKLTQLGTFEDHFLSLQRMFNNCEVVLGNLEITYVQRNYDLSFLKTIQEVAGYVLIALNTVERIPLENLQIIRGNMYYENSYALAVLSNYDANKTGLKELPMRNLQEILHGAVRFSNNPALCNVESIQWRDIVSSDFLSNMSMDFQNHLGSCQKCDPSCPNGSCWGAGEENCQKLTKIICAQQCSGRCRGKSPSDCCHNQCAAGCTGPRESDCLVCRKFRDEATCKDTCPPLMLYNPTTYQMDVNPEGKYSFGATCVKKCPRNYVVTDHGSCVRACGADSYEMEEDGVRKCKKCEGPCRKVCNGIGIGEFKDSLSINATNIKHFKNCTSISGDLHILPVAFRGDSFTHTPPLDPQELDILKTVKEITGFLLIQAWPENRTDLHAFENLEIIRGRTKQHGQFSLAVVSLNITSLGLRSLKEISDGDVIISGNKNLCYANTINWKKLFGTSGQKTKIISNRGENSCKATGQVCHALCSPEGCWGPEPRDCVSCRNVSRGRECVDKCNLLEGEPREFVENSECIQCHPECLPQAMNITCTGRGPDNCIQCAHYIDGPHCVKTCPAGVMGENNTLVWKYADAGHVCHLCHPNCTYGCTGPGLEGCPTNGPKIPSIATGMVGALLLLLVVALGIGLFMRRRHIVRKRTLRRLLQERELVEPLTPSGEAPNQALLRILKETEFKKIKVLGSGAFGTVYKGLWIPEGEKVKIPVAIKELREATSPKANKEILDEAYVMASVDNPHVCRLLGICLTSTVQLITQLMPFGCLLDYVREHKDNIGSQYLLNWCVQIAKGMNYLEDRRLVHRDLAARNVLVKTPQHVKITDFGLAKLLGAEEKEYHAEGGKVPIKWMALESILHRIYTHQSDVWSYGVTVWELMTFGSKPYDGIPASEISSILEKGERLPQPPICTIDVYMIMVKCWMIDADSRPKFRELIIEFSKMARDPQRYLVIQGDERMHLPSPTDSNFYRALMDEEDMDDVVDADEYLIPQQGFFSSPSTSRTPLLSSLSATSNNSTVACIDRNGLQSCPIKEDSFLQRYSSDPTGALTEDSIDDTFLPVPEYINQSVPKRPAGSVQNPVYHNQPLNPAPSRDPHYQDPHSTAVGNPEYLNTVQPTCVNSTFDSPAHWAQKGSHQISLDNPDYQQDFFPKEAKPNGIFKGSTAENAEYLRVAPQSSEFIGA
UniProt P00533, 25-1210 C797S/L858R limits assumed: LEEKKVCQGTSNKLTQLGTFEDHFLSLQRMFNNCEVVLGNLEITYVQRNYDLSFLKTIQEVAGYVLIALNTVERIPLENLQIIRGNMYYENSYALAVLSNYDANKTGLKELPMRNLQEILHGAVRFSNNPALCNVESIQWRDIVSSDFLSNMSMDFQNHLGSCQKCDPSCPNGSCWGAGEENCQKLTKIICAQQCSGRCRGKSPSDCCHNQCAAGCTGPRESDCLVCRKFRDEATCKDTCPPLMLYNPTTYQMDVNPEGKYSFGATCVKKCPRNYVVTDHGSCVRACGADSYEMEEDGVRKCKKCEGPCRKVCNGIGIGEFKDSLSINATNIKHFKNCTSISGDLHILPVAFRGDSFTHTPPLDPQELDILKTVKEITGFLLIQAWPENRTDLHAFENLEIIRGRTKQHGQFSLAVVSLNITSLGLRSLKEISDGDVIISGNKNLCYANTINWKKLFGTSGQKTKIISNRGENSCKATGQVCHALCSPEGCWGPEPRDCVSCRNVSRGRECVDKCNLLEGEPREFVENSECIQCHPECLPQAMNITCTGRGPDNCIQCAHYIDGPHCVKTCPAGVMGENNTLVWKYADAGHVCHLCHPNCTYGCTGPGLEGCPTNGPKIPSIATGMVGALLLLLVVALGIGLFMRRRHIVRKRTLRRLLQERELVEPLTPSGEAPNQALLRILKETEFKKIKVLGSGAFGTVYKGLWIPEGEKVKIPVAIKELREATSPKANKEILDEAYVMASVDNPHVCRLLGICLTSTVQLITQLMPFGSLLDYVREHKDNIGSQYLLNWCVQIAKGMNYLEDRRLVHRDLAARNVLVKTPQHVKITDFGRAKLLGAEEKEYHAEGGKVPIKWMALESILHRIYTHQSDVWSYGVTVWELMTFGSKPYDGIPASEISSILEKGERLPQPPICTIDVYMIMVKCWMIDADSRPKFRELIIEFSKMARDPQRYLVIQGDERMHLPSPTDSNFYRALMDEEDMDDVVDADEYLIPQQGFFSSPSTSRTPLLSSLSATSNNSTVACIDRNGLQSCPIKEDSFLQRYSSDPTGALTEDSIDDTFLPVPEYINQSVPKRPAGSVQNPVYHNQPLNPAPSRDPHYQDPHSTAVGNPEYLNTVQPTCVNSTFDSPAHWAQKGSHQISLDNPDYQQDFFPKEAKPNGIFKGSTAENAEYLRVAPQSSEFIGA
UniProt P00533, 25-1210 T790M/C797S/L858R limits assumed: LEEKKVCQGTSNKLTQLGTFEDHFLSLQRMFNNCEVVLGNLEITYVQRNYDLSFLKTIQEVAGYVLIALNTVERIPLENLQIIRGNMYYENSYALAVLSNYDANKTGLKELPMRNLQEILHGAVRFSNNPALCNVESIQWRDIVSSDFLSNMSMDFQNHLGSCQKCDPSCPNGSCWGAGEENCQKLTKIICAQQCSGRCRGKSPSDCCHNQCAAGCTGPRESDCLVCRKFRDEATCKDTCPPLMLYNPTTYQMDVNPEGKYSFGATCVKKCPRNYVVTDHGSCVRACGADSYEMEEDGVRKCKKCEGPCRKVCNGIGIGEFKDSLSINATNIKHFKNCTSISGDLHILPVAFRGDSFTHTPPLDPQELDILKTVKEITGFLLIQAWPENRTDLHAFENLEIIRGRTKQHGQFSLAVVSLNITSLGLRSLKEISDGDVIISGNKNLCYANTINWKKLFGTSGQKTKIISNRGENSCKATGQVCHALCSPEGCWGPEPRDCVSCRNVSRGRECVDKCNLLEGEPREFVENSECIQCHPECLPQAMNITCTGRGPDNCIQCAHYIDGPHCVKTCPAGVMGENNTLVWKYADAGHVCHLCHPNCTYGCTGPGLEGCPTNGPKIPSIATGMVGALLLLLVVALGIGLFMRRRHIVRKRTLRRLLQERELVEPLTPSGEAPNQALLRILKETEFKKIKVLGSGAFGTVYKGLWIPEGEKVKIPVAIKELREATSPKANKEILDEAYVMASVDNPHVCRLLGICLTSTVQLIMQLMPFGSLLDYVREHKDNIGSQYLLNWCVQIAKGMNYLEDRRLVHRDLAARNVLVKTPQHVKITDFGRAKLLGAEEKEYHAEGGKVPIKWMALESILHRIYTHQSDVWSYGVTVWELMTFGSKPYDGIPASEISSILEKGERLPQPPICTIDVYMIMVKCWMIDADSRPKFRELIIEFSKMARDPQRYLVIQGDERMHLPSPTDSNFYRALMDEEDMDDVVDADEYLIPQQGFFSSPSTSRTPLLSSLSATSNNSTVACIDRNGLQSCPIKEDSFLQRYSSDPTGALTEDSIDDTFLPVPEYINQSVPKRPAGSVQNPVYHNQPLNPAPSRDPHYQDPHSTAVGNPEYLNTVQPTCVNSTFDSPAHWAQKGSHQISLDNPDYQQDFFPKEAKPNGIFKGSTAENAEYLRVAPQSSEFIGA
UniProt P00533, with tags, fused parts or gaps DEL746-750/C797S limits assumed: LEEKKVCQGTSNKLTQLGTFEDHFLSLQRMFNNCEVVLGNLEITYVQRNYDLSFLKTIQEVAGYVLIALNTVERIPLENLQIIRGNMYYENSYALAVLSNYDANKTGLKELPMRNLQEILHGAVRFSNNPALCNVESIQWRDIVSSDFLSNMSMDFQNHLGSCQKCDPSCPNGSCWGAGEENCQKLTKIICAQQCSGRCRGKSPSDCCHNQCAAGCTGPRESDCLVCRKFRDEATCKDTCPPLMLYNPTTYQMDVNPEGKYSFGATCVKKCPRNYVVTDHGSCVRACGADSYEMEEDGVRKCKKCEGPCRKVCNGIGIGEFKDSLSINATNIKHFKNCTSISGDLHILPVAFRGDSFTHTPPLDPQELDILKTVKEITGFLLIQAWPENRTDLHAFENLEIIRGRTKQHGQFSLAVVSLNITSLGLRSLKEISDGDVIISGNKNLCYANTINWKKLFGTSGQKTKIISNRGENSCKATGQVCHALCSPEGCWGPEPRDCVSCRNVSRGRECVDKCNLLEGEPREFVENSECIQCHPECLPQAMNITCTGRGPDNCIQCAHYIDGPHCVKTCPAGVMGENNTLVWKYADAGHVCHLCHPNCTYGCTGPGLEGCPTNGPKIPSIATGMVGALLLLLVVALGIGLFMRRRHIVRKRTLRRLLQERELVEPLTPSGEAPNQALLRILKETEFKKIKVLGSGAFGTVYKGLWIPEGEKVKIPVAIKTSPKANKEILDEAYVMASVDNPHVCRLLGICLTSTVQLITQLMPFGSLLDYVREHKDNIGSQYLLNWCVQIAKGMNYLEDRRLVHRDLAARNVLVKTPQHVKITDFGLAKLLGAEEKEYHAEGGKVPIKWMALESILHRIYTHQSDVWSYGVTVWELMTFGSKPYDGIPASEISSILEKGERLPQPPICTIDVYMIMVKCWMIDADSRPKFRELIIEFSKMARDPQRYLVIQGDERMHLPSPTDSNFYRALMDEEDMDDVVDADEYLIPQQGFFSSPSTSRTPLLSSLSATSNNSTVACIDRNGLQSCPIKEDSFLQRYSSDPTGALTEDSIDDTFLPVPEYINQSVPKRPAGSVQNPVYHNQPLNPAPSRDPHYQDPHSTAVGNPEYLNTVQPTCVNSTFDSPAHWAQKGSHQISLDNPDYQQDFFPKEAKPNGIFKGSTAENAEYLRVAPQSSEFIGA
UniProt P00533, with tags, fused parts or gaps DEL746-750/T790M/C797S limits assumed: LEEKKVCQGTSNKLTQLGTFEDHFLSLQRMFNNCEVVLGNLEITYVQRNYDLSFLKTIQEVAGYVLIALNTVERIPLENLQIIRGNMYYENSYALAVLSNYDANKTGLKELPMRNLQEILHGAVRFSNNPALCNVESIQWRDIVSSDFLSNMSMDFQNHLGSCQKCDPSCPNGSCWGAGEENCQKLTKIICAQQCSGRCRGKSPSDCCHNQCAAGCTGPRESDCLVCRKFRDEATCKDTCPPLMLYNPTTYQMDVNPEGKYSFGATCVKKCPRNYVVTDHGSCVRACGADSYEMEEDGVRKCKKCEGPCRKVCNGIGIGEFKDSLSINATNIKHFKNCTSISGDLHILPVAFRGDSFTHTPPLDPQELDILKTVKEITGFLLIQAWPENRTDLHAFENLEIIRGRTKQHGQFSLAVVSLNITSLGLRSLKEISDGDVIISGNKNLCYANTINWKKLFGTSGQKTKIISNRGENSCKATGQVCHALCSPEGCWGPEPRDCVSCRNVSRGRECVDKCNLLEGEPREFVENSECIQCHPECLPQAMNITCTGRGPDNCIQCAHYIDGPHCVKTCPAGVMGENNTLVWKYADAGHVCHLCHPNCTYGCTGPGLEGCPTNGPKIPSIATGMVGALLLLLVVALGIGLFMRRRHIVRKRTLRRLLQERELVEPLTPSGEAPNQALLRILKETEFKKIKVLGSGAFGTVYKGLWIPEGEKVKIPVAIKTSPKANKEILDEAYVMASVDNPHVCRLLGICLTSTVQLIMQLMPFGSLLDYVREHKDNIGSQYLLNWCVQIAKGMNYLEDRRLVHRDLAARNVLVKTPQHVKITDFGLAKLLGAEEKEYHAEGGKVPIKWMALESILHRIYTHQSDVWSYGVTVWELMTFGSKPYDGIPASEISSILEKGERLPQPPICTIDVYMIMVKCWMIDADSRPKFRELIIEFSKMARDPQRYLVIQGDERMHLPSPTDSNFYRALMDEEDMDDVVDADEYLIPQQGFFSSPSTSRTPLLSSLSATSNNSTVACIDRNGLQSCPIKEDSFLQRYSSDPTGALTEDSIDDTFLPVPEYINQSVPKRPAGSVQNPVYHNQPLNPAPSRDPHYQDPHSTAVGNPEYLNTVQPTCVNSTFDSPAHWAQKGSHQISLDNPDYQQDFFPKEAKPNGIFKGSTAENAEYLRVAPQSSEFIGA

One test concerns the target EGFR LRCS (L858R/C797S) (Homo sapiens, UniProt P00533, C797S/L858R). Description: Biochemical EGFR kinase assay (Lance Ultra TR-FRET), double mutant L858R/C797S. Background: In TR-FRET formats the signal depends on donor and acceptor labels being close together.
The target in the next test is EGFR D19CS (del19/C797S) (Homo sapiens, UniProt P00533, C797S/DEL746-750). Nature of the test: Biochemical EGFR kinase assay (Lance Ultra TR-FRET), double mutant del19/C797S.
Another test has as its target EGFR WT (Homo sapiens, UniProt P00533). Nature of the test: Biochemical EGFR kinase assay (Lance Ultra TR-FRET), wildtype.
For test [1], the target named is EGFR LRTMCS (L858R/T790M/C797S) (Homo sapiens, UniProt P00533, C797S/L858R/T790M). Nature of the test: Biochemical EGFR kinase assay (Lance Ultra TR-FRET), triple mutant L858R/T790M/C797S.
In test [2] the target is EGFR D19TMCS (del19/T790M/C797S) (Homo sapiens, UniProt P00533, C797S/DEL746-750/T790M). Nature of the test: Biochemical EGFR kinase assay (Lance Ultra TR-FRET), triple mutant del19/T790M/C797S.
The mark [3] stands for this setting: read-out: EGFR LRCS IC50, ATP 1 mM.
[4] abbreviates: read-out: EGFR LRCS IC50, ATP Km.
[5] abbreviates: read-out: EGFR D19CS IC50, ATP 1 mM.
Setting [6] is: read-out: EGFR D19CS IC50, ATP Km.
Where [7] appears, read: read-out: EGFR WT IC50, ATP 1 mM.
[8] abbreviates: read-out: EGFR LRTMCS IC50, ATP 1 mM.
[9] abbreviates: read-out: EGFR LRTMCS IC50, ATP Km.
Where [10] appears, read: read-out: EGFR D19TMCS IC50, ATP 1 mM.
[11] abbreviates: read-out: EGFR D19TMCS IC50, ATP Km.
Setting [12] is: read-out: IC50, EGFR-LRCS, 1 mM, ATP 1 mM, EGFR L858R/C797S.
The mark [13] stands for this setting: read-out: IC50, EGFR-LRCS, Km, ATP at Km, EGFR L858R/C797S.
The mark [14] stands for this setting: read-out: IC50, EGFR-D19CS, 1 mM, ATP 1 mM, EGFR del19/C797S.
[15] abbreviates: read-out: IC50, EGFR-D19CS, Km, ATP at Km, EGFR del19/C797S.
The mark [16] stands for this setting: read-out: IC50, EGFR WT, 1 mM, ATP 1 mM, EGFR wildtype.
Setting [17] is: read-out: IC50, EGFR WT, Km, ATP at Km, EGFR wildtype.
The mark [18] stands for this setting: read-out: IC50, EGFR LRTMCS, 1 mM, ATP 1 mM, EGFR L858R/T790M/C797S.
Setting [19] is: read-out: IC50, EGFR LRTMCS, Km, ATP at Km, EGFR L858R/T790M/C797S.
Setting [20] is: read-out: IC50, EGFR D19TMCS, Km, ATP at Km, EGFR del19/T790M/C797S.

pIC50: −log10 of the molar value. Read-outs that look alike come from different tables or passages of the source. Where only a bound is given, the exact number is not on record here.

One may read the pIC50 as −log10 of the IC50, conventionally taken in molar units. As to `Cc1nn(C)c2c1-c1nccc(n1)Nc1cc(c(-c3ncc(C(C)(C)F)cn3)cn1)N[C@@H](C)CCO2`, the pIC50 on EGFR LRCS (L858R/C797S) (setting [3]) was below 6.00; on EGFR LRCS (L858R/C797S) (setting [4]), above 8.00; at EGFR D19CS (del19/C797S) (setting [5]), 7.00 to 8.00; on EGFR D19CS (del19/C797S) (setting [6]), above 8.00; on EGFR WT (setting [7]), below 6.00; on EGFR WT (read-out: EGFR WT IC50, ATP Km), 7.00 to 8.00. Moreover, the pIC50 in test [1] (setting [8]), in test [1] (setting [9]), in test [2] (setting [10]) and in test [2] (setting [11]) was above 8.00 in each case.

Regarding `Cc1nn(C)c2c1-c1nccc(n1)Nc1cc(c(-c3ncc(CN4CC(OC(F)F)C4)cc3F)cn1)N[C@@H](C)CCO2`, the pIC50 on EGFR LRCS (L858R/C797S) (setting [3]) is 6.00 to 7.00; on EGFR LRCS (L858R/C797S) (setting [4]) it was above 8.00; at EGFR D19CS (del19/C797S) (setting [5]), above 8.00; on EGFR D19CS (del19/C797S) (setting [6]), above 8.00; at EGFR WT (setting [7]), below 6.00; on EGFR WT (read-out: EGFR WT IC50, ATP Km), above 8.00. Besides, the pIC50 in test [1] (setting [8]), in test [1] (setting [9]), in test [2] (setting [10]) and in test [2] (setting [11]) was above 8.00 each time.

For the compound `C[C@H]1CCOc2c(cnn2C)-c2nccc(n2)Nc2cc(c(-c3ccc(OC4CCN(CC(F)(F)F)CC4)cn3)cn2)N1`, the pIC50 was below 6.00 at EGFR LRCS (L858R/C797S) (setting [3]); 7.00 to 8.00 at EGFR LRCS (L858R/C797S) (setting [4]); 6.00 to 7.00 on EGFR D19CS (del19/C797S) (setting [5]); 7.00 to 8.00 on EGFR D19CS (del19/C797S) (setting [6]); below 6.00 at EGFR WT (setting [7]); 7.00 to 8.00 on EGFR WT (read-out: EGFR WT IC50, ATP Km). Further, the pIC50 is 7.00 to 8.00 in test [1] (setting [8]), above 8.00 in test [1] (setting [9]), above 8.00 in test [2] (setting [10]) and above 8.00 in test [2] (setting [11]).

Take `Cc1nn(C)c2c1-c1nccc(n1)Nc1cc(c(-c3cnc(CN4CCOCC4)cn3)cn1)N[C@@H](C)CCO2`: the pIC50 is 7.00 to 8.00 on EGFR LRCS (L858R/C797S) (setting [12]); above 8.00 at EGFR LRCS (L858R/C797S) (setting [13]); above 8.00 at EGFR D19CS (del19/C797S) (setting [14]); above 8.00 at EGFR D19CS (del19/C797S) (setting [15]); below 6.00 on EGFR WT (setting [16]); above 8.00 at EGFR WT (setting [17]). For the same compound, the pIC50 in test [1] (setting [18]), in test [1] (setting [19]) and in test [2] (setting [20]) was above 8.00 throughout.

`Cc1nn(C)c2c1-c1nccc(n1)Nc1cc(c(-c3cnc(CN4CCC(F)(F)CC4)cn3)cn1)N[C@@H](C)CCO2`: the negative logarithm of the IC50 (pIC50) at EGFR LRCS (L858R/C797S) (setting [12]) is 6.00 to 7.00; at EGFR LRCS (L858R/C797S) (setting [13]) it was above 8.00; at EGFR D19CS (del19/C797S) (setting [14]) it was 7.00 to 8.00; on EGFR D19CS (del19/C797S) (setting [15]), above 8.00; at EGFR WT (setting [16]) it was below 6.00; at EGFR WT (setting [17]), above 8.00. Also, the pIC50 in test [1] (setting [18]) is 7.00 to 8.00; in test [1] (setting [19]) it was above 8.00; in test [2] (setting [20]) it was above 8.00.

`Cc1nn(C)c2c1-c1nccc(n1)Nc1cc(c(-c3ncc(CN4C[C@H](CS(C)(=O)=O)[C@H]4C)cc3F)cn1)N[C@@H](C)CCO2`: the pIC50 at EGFR LRCS (L858R/C797S) (setting [12]) was 7.00 to 8.00; at EGFR LRCS (L858R/C797S) (setting [13]), above 8.00; on EGFR D19CS (del19/C797S) (setting [14]), 7.00 to 8.00; on EGFR D19CS (del19/C797S) (setting [15]), above 8.00; on EGFR WT (setting [16]), below 6.00; at EGFR WT (setting [17]), 7.00 to 8.00. Also, the pIC50 was 7.00 to 8.00 in test [1] (setting [18]), above 8.00 in test [1] (setting [19]) and above 8.00 in test [2] (setting [20]).

`C[C@H]1CCNc2cc(ncc2-c2ccn(C(F)F)n2)Nc2ccnc(n2)-c2cnn(C)c2O1`: the pIC50 on EGFR LRCS (L858R/C797S) (setting [3]) was 6.00 to 7.00; at EGFR LRCS (L858R/C797S) (setting [4]), above 8.00; on EGFR D19CS (del19/C797S) (setting [5]) it was above 8.00; at EGFR D19CS (del19/C797S) (setting [6]) it was above 8.00; at EGFR WT (setting [7]) it was below 6.00; at EGFR WT (read-out: EGFR WT IC50, ATP Km), above 8.00. For the same compound, the pIC50 in test [1] (setting [8]), in test [1] (setting [9]), in test [2] (setting [10]) and in test [2] (setting [11]) was above 8.00 throughout.

As for `C[C@H]1CCOc2c(cnn2C)-c2nccc(n2)Nc2cc(c(-c3cc(C(F)(F)F)n(C)n3)cn2)N1`, the pIC50 at EGFR LRCS (L858R/C797S) (setting [3]) is 6.00 to 7.00; on EGFR LRCS (L858R/C797S) (setting [4]), 7.00 to 8.00; on EGFR D19CS (del19/C797S) (setting [5]), 7.00 to 8.00; on EGFR D19CS (del19/C797S) (setting [6]) it was above 8.00; on EGFR WT (setting [7]), below 6.00; at EGFR WT (read-out: EGFR WT IC50, ATP Km), 7.00 to 8.00. The pIC50 in test [1] (setting [8]), in test [1] (setting [9]), in test [2] (setting [10]) and in test [2] (setting [11]) was above 8.00 throughout.

Consider `Cc1cn(C)nc1-c1cnc2cc1NCC[C@H](C)Oc1c(cnn1C)-c1nccc(n1)N2`, for which the pIC50 on EGFR LRCS (L858R/C797S) (setting [3]) is 6.00 to 7.00; at EGFR LRCS (L858R/C797S) (setting [4]), above 8.00; at EGFR D19CS (del19/C797S) (setting [5]) it was 6.00 to 7.00; at EGFR D19CS (del19/C797S) (setting [6]), 7.00 to 8.00; at EGFR WT (setting [7]) it was below 6.00; on EGFR WT (read-out: EGFR WT IC50, ATP Km), 7.00 to 8.00. In addition, the pIC50 in test [1] (setting [8]), in test [1] (setting [9]), in test [2] (setting [10]) and in test [2] (setting [11]) was above 8.00 each time.
